Measurements reported in patent US11466006B2, “Dual selective PI3 delta and gamma kinase inhibitors” (Rhizen Pharmaceuticals SA, priority 2013, dated 2022).

By UniProt entry, the sequences of proteins in these tests, tags left out. Where a name states a change or a piece, a line headed by the entry shows the natural chain unless it says otherwise.
UniProt O00329, whole entry: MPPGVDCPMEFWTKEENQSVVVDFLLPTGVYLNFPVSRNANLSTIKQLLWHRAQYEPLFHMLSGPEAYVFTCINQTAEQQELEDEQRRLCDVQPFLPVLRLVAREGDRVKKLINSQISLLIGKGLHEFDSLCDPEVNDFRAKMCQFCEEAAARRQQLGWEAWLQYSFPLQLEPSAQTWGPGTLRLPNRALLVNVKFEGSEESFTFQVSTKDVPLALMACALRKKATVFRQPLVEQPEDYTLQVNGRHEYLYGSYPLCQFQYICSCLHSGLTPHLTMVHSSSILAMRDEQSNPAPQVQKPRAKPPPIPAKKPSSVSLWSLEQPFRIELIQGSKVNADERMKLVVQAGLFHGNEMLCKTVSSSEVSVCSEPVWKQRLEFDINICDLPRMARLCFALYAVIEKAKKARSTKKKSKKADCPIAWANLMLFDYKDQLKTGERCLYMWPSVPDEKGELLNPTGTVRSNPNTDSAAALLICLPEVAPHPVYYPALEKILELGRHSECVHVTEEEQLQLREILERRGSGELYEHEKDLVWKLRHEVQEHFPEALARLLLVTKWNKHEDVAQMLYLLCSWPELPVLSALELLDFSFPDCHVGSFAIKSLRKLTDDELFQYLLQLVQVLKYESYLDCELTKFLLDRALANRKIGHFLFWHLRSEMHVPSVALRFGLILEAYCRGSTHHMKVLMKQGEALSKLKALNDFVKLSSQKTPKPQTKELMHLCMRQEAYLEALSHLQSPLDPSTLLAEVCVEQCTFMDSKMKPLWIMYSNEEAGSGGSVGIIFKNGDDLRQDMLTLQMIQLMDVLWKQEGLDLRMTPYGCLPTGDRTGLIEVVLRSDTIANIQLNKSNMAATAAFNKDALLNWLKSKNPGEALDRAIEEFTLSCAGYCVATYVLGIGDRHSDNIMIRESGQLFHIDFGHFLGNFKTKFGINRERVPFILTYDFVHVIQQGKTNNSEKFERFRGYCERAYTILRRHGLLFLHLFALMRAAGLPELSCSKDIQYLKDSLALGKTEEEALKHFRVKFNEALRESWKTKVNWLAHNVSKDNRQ
UniProt P48736, whole entry: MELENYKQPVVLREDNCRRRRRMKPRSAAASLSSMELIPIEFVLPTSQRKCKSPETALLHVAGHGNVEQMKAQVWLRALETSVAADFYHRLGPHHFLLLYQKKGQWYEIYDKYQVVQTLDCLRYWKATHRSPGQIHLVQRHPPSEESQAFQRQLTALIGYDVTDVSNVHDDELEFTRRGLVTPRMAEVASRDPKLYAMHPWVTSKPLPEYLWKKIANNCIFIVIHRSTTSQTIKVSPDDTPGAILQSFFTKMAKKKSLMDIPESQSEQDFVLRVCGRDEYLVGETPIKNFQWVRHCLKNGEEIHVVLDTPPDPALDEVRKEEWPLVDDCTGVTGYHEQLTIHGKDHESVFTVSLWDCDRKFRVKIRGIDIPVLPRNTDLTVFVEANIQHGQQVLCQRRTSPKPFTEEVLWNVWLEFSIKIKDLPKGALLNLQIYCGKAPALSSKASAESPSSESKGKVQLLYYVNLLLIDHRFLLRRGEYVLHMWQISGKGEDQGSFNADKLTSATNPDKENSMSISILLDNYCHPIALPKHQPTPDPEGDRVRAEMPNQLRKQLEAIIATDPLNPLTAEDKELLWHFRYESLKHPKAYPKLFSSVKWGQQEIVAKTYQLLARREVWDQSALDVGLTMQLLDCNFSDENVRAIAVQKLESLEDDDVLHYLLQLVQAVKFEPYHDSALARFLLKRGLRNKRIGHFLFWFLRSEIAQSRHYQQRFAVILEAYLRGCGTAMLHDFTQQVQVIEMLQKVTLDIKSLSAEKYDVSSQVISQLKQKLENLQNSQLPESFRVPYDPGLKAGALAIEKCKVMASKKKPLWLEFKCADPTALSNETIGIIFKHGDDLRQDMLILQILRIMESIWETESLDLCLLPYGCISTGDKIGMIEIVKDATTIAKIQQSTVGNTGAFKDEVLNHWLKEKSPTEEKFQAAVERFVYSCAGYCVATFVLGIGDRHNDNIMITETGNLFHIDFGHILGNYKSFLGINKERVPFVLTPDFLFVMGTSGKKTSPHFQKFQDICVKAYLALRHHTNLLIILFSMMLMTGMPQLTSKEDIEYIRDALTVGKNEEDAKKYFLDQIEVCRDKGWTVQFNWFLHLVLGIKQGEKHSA
UniProt P27986, whole entry partner: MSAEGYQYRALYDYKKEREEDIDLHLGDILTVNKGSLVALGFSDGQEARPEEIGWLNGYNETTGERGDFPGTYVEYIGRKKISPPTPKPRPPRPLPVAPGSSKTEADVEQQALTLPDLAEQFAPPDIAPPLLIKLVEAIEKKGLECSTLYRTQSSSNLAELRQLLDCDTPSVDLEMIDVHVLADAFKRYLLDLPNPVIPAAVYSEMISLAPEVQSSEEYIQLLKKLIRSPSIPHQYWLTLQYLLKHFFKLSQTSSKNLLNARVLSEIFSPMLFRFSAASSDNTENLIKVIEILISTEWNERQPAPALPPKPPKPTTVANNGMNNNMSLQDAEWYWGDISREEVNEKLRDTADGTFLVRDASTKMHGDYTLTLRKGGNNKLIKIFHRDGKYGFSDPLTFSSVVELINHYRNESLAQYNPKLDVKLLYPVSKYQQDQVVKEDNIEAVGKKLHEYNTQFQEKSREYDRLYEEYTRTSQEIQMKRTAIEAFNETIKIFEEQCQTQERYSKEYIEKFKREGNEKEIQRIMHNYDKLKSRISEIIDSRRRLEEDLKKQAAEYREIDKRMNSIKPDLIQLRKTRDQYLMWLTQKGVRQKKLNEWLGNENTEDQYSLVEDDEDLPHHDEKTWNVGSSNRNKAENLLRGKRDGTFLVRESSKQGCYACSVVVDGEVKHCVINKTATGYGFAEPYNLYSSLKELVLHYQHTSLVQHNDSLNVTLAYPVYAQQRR

What was measured:
PI3Kδ = PI3Kδ (Homo sapiens, UniProt O00329); assay: Fluorescent (HTRF) determination of PI3 kinase enzyme activity, delta isoform; conditions: read-out: PI3K δ IC50 in nM; Table 2, comparative data
Description: (§1) Phosphoinositide 3 kinases (PI3K) belong to a class of lipid kinases that play a critical role in the regulation of several key cellular processes. The PI3K are capable of phosphorylating the 3-hydroxy position of phosphoinositols thereby generating second messengers involved in downstream signalling events. The homogenous time resolved fluorescence (HTRF) assay allows detection of 3,4,5-triphosphate (PIP3) formed as a result of phosphorylation of phosphotidylinositol 4,5-biphosphate (PIP2) by PI3K isoforms such as α, β, γ or δ.
(§2) PI3K isoform activity for α, β, γ or δ was determined using a PI3K human HTRF™ Assay Kit (Millipore, Billerica, Mass.) with modifications. All incubations were carried out at room temperature. Briefly, 0.5 μl of 40× inhibitor (in 100% DMSO) or 100% DMSO were added to each well of a 384-well white plate (Greiner Bio-One, Monroe, N.C.) containing 14.5 μl 1× reaction buffer /PIP2 (10 mM MgCl2, 5 mM DTT, 1.38 μM PIP2) mix with or without enzyme, followed by 5 μl/well of 400 μM ATP and incubated for an additional 30 minutes. Reaction was terminated by adding 5 μl/well stop solution (Millipore, Billerica, Mass.). […] HRTF ratio was measured on a microplate reader (BMG Labtech., Germany) at an excitation wavelength of 337 nm and emission wavelengths of 665 and 615 nm with an integration time of 400 msec counting delay of 50 msec.

Pi3K γ = Pi3K γ (Homo sapiens, UniProt P48736); assay: Fluorescent (HTRF) determination of PI3 kinase enzyme activity, gamma isoform; conditions: Table 2, at 1 μm
Description: as §1, §2

For `C[C@H](Nc1ncnc2[nH]cnc12)c1oc2ccccc2c(=O)c1-c1cccc(F)c1`, which IC50 (PI3Kδ) is on record?
The IC50 was 106 nM.

What about the “PI3Kγ % Inhibition at 1 μm” value (Pi3K γ) of the same compound?
Its value is 25.54%.
